## OPERA 2.9 data: properties

Data: OPERA 2.9 data sets, kmansouri/OPERA on GitHub.

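OPERA's authors assembled the values from existing databases and did not measure them anew. The files give a single number for a compound and property, which may rest on several reports. Conditions of the individual experiments are not part of the data. A value may pool stereoisomers or salt forms, and the file does not say which form was measured. Some upstream entries may be estimates or bounds without being marked so.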

The melting point is given in degrees Celsius.
logP is the log10 of the octanol-water partition coefficient; higher is more lipophilic.
Water solubility is log10 of mol/L, nominally at 25 °C; higher is more soluble.
Vapor pressures (log10 mmHg) refer to near room temperature, 15 to 30 °C; higher is more volatile.
The Henry's law constant is on a log10 scale in atm·m3/mol (set defined at 25 °C); higher favours air over water.
fu is the fraction unbound in human plasma, from 0 to 1.
Cells with "–" have no entry in this list.

The entry for CC(C)=CCCC(C)CCCC(C)C=O (stereo not drawn) lists water solubility -5.497 (log10 mol/L) and log vapor pressure -2.538 (log10 mmHg).
The entry for CC(=O)CCC=C(C)C lists logP (octanol/water) 2.07 and water solubility -1.621 (log10 mol/L) and log vapor pressure -0.099 (log10 mmHg).
The entry for C=CC1(C)CCC(C(C)(C)O)O1 (stereo not drawn) lists water solubility -1.8 (log10 mol/L) and log vapor pressure 0.136 (log10 mmHg).
The entry for O=C(Nc1ccc2c([O-])c(/N=N/c3ccc(-c4ccc(/N=N/c5c(S(=O)(=O)[O-])cc6cc(S(=O)(=O)[O-])cc(O)c6c5[O-])c([O-])c4)cc3[O-])c(S(=O)(=O)[O-])cc2c1)c1ccccc1.[Cu+2].[Cu+2].[Na+].[Na+].[Na+] lists melting point 254 °C and water solubility -3.631 (log10 mol/L).
The entry for COC(=O)CCC(=O)CN lists logP (octanol/water) -1.2 and water solubility 0.181 (log10 mol/L).
The entry for O=C(OC[C@H]1O[C@@](COC(=O)c2ccccc2)(O[C@H]2O[C@H](COC(=O)c3ccccc3)[C@@H](OC(=O)c3ccccc3)[C@H](OC(=O)c3ccccc3)[C@H]2OC(=O)c2ccccc2)[C@@H](OC(=O)c2ccccc2)[C@@H]1OC(=O)c1ccccc1)c1ccccc1 lists melting point 73.4 °C and water solubility -5.593 (log10 mol/L) and log vapor pressure -9.772 (log10 mmHg).
The entry for CC(=O)NCC(N)=O lists melting point 142 °C and logP (octanol/water) -1.83.
The entry for CCCCCCOC(=O)c1ccccc1C(=O)c1ccc(N(CC)CC)cc1O lists melting point 54 °C and log vapor pressure -7.663 (log10 mmHg).
The entry for C=CC(=O)OCCCCCCc1ccc(OC(=O)[C@H]2CC[C@H](C(=O)Oc3ccc(CCCCCCOC(=O)C=C)cc3)CC2)cc1 lists melting point 85.6 °C and water solubility -7.158 (log10 mol/L) and log vapor pressure -9.319 (log10 mmHg).
The entry for CC1(C)CC(NC(=O)c2cccc(C(=O)NC3CC(C)(C)NC(C)(C)C3)c2)CC(C)(C)N1 lists melting point 275.5 °C and logP (octanol/water) 1.12.
The entry for CC[C@]1(C/C=C2\CCCc3cc(OC)ccc32)C(=O)CC[C@@H]1O lists melting point 73.8 °C and logP (octanol/water) 3.6 and water solubility -4.123 (log10 mol/L) and log vapor pressure -8.347 (log10 mmHg).
The entry for CC=CC(=O)N(CC)c1ccccc1C lists logP (octanol/water) 2.9 and water solubility -2.76 (log10 mol/L).
The entry for NC(=O)Nc1ccc(Cl)cc1 lists water solubility -1.979 (log10 mol/L) and log vapor pressure -3.783 (log10 mmHg) and Henry's law constant -9.827 (log10 atm·m3/mol).
The entry for CCCCC(CC)COP(=O)(O)O (stereo not drawn) lists melting point -28 °C and water solubility -1.982 (log10 mol/L).
The entry for COC1CCCC1 lists logP (octanol/water) 1.6 and log vapor pressure 1.506 (log10 mmHg).
The entry for CCOC(=O)C(C)CC (stereo not drawn) lists water solubility -2.336 (log10 mol/L) and log vapor pressure 0.944 (log10 mmHg).
The entry for O=C1[C@H](CC[C@H](O)c2ccc(F)cc2)[C@@H](c2ccc(O)cc2)N1c1ccc(F)cc1 lists logP (octanol/water) 4.5 and water solubility -4.685 (log10 mol/L) and fraction unbound 0.1.
The entry for Oc1cnc2ccccc2n1 lists water solubility -0.951 (log10 mol/L) and Henry's law constant -6.372 (log10 atm·m3/mol).
The entry for COc1ccc(C(=O)O)cc1 lists water solubility -2.69 (log10 mol/L) and log vapor pressure -5.103 (log10 mmHg).
The entry for Cc1ccc2oc(=O)ccc2c1 lists water solubility -2.129 (log10 mol/L) and log vapor pressure -3.291 (log10 mmHg).

3 of these entries, quoted again:

| SMILES | melting point (°C) | logP (octanol/water) | water solubility (log10 mol/L) | log vapor pressure (log10 mmHg) | Henry's law constant (log10 atm·m3/mol) | fraction unbound |
|---|---|---|---|---|---|---|
| O=C(Nc1ccc2c([O-])c(/N=N/c3ccc(-c4ccc(/N=N/c5c(S(=O)(=O)[O-])cc6cc(S(=O)(=O)[O-])cc(O)c6c5[O-])c([O-])c4)cc3[O-])c(S(=O)(=O)[O-])cc2c1)c1ccccc1.[Cu+2].[Cu+2].[Na+].[Na+].[Na+] | 254 | – | -3.631 | – | – | – |
| Cc1ccc2oc(=O)ccc2c1 | – | – | -2.129 | -3.291 | – | – |
| CC(=O)NCC(N)=O | 142 | -1.83 | – | – | – | – |